Earlier results on one molecule are cited in patent US11747352B2 (Concordia University, Inc., priority 2017, dated 2023).

For this data set the following is noted: Table CYP1A2; cited from earlier work.

As for `CN(C)CCc1c[nH]c2ccc(C[C@H]3COC(=O)N3)cc12` [Zolmirripran], the “HALF LIFE” value is 3 h.
